Laboratory results: patent US4297346A, “Pseudopeptides used as medicaments” (priority 1976, dated 1981)

System: mouse
Assay: Potentialisation of the group toxicity to amphetamine
Format: in vivo
Conditions: group toxicity in respect of amphetamine
Description: The different tests which are carried out on mice by the known techniques comprise:
the potentialisation of the group toxicity to amphetamine,
(3) Group toxicity in respect of amphetamine

pGlu--His--DA [pGlu-His-dopamine]
dosage which causes 50% mortality of the animals: 1120 mg/kg
